What was measured:
[1] = Loss of asthma control (LOAC) events, 12-week ICS/LABA withdrawal study; format: in vivo, human
[2] = Asthma Quality of Life Questionnaire with Standardized Activities (AQLQ(S)); format: in vivo, human; conditions: for AQLQ global score change from baseline at Week 12, Mean / AQLQ global score change from baseline at Week 12, LS Mean: mITT; for AQLQ and AQLQ(S) effect (in words): both cohorts
[3] = 400 mg BID, all others than low EOS and low FeNO
[4] = 400 mg BID, baseline FeNO ≥35 ppb
[5] = 400 mg BID, baseline blood eosinophil level 2 <0.3 10^9/L
[6] = 400 mg TID, 2 asthma exacerbations within 2 years
[7] = 400 mg TID, baseline BMI ≥25-<30 kg/m^2
[8] = 400 mg TID, baseline weight ≥90 kg
[9] = 400 mg TID, low EOS (<0.15) and low FeNO (<25)

## CC(C)(C=C(C#N)C(=O)N1CCC[C@@H](n2nc(-c3ccc(Oc4ccccc4)cc3F)c3c(N)ncnc32)C1)N1CCN(C2COC2)CC1 (mixture of isomers) [rilzabrutinib, (R)-2-[3-[4-amino-3-(2-fluoro-4-phenoxy-phenyl)pyrazolo[3,4-d]pyrimidin-1-yl]piperidine-1-carbonyl]-4-methyl-4-[4-(oxetan-3-yl)piperazin-1-yl]pent-2-enenitrile]
[1]; 400 mg BID or 400 mg TID, regardless of baseline demographic and disease characteristics, ICS/LABA dose, biomarkers, eosinophils, FeNO
  incidence of LOAC events in subgroups: numerical improvement in the incidence of LOAC events
[1]; 400 mg BID, age at onset ≥40 years
  LOAC, incidence (in parentheses): (75.0)
[1]; 400 mg BID, baseline FeNO level 1 ≥25 ppb
  LOAC, incidence (in parentheses): (45.0)
[1]; 400 mg BID, smoking history Former
  LOAC, incidence (in parentheses): (75.0)
[1]; 400 mg TID, FEV1 reversibility ≥12 %
  LOAC, incidence (in parentheses): (7.7)
[2]; 400 mg BID, age <45 years
  AQLQ global score change from baseline at Week 12, Mean: 0.62
[2]; 400 mg BID, age at asthma onset <12 years
  AQLQ global score change from baseline at Week 12, Mean: 0.89
[2]; 400 mg BID, age at asthma onset ≥18-<40 years
  AQLQ global score change from baseline at Week 12, LS Mean: 0.77
[2]; 400 mg BID, age at asthma onset ≥40 years
  AQLQ global score change from baseline at Week 12, LS Mean: 0.23
[2]; 400 mg BID, age ≥45 years
  AQLQ global score change from baseline at Week 12, LS Mean: 0.89
[2]; [3]
  AQLQ global score change from baseline at Week 12, LS Mean: 0.77 (0.22)
  AQLQ global score change from baseline at Week 12, Mean: 0.85 (0.99)
[2]; 400 mg BID, baseline BMI <25 kg/m^2
  AQLQ global score change from baseline at Week 12, LS Mean: 0.55
[2]; 400 mg BID, baseline BMI ≥30 kg/m^2
  AQLQ global score change from baseline at Week 12, LS Mean: 1.30
[2]; 400 mg BID, baseline FeNO <35 ppb
  AQLQ global score change from baseline at Week 12, LS Mean: 0.85 (0.23)
[2]; 400 mg BID, baseline FeNO ≥25 ppb
  AQLQ global score change from baseline at Week 12, Mean: 0.78 (1.05)
[2]; [4]
  AQLQ global score change from baseline at Week 12, LS Mean: 0.85 (0.40)
  AQLQ global score change from baseline at Week 12, Mean: 1.09 (1.01)
[2]; 400 mg BID, baseline IgE <median 210.8 IU/mL
  AQLQ global score change from baseline at Week 12, Mean: 0.73 (0.89)
[2]; 400 mg BID, baseline IgE ≥100 IU/mL
  AQLQ global score change from baseline at Week 12, Mean: 0.78 (0.94)
[2]; 400 mg BID, baseline blood eosinophil level 1 <0.15 10^9/L
  AQLQ global score change from baseline at Week 12, Mean: 0.82 (1.24)
[2]; 400 mg BID, baseline blood eosinophil level 1 ≥0.15 10^9/L
  AQLQ global score change from baseline at Week 12, Mean: 0.85 (0.91)
[2]; [5]
  AQLQ global score change from baseline at Week 12, LS Mean: 0.89 (0.29)
  AQLQ global score change from baseline at Week 12, Mean: 0.90 (1.18)
[2]; 400 mg BID, baseline blood eosinophil level 2 ≥0.3 10^9/L
  AQLQ global score change from baseline at Week 12, Mean: 0.77 (0.73)
[2]; 400 mg BID, baseline pre-bronchodilator FEV1 <2.022 L
  AQLQ global score change from baseline at Week 12, Mean: 0.89
[2]; 400 mg BID, baseline weight <60 kg
  AQLQ global score change from baseline at Week 12, LS Mean: 0.82
[2]; 400 mg BID, baseline weight ≥60-<90 kg
  AQLQ global score change from baseline at Week 12, LS Mean: 0.77
[2]; 400 mg BID, former smokers
  AQLQ global score change from baseline at Week 12, Mean: 0.73
[2]; 400 mg BID, low EOS (<0.15) and low FeNO (<25)
  AQLQ global score change from baseline at Week 12, Mean: 0.71 (1.25)
[2]; 400 mg BID, male
  AQLQ global score change from baseline at Week 12, LS Mean: 0.73
[2]; [6]
  AQLQ global score change from baseline at Week 12, LS Mean: 0.41
  AQLQ global score change from baseline at Week 12, Mean: 0.34
[2]; 400 mg TID, Western Countries
  AQLQ global score change from baseline at Week 12, Mean: 0.78 (0.75)
[2]; 400 mg TID, age at asthma onset <18 years
  AQLQ global score change from baseline at Week 12, LS Mean: 0.45
[2]; 400 mg TID, age at asthma onset ≥18-<40 years
  AQLQ global score change from baseline at Week 12, Mean: 0.34
[2]; 400 mg TID, age ≥45 years
  AQLQ global score change from baseline at Week 12, Mean: 0.41 (1.01)
[2]; 400 mg TID, background ICS dose medium
  AQLQ global score change from baseline at Week 12, Mean: 0.41
[2]; [7]
  AQLQ global score change from baseline at Week 12, LS Mean: 0.96 (0.16)
  AQLQ global score change from baseline at Week 12, Mean: 0.75 (0.71)
[2]; 400 mg TID, baseline FEV1 reversibility <12%
  AQLQ global score change from baseline at Week 12, Mean: 0.42
[2]; 400 mg TID, baseline FEV1 reversibility ≥12%
  AQLQ global score change from baseline at Week 12, LS Mean: 0.63
[2]; 400 mg TID, baseline FeNO <35 ppb
  AQLQ global score change from baseline at Week 12, Mean: 0.41 (0.84)
[2]; 400 mg TID, baseline IgA <median 2190 mg/L
  AQLQ global score change from baseline at Week 12, LS Mean: 0.77 (0.17)
[2]; 400 mg TID, baseline IgA ≥median 2190 mg/L
  AQLQ global score change from baseline at Week 12, LS Mean: 0.41 (0.18)
[2]; 400 mg TID, baseline IgE <100 IU/mL
  AQLQ global score change from baseline at Week 12, Mean: 0.55 (0.59)
[2]; 400 mg TID, baseline IgE ≥100 IU/mL
  AQLQ global score change from baseline at Week 12, Mean: 0.42 (0.98)
[2]; 400 mg TID, baseline IgE ≥median 121.85 IU/mL
  AQLQ global score change from baseline at Week 12, Mean: 0.31 (1.03)
[2]; 400 mg TID, baseline blood eosinophil level 1 <0.15 10^9/L
  AQLQ global score change from baseline at Week 12, Mean: 0.41 (0.58)
[2]; 400 mg TID, baseline blood eosinophil level 1 ≥0.15-<0.3 10^9/L
  AQLQ global score change from baseline at Week 12, LS Mean: 0.39 (0.29)
[2]; 400 mg TID, baseline blood eosinophil level 1 ≥0.3 10^9/L
  AQLQ global score change from baseline at Week 12, LS Mean: 0.72 (0.28)
[2]; 400 mg TID, baseline blood eosinophil level 2 <0.3 10^9/L
  AQLQ global score change from baseline at Week 12, Mean: 0.42 (0.73)
[2]; 400 mg TID, baseline blood eosinophil level 2 ≥0.3 10^9/L
  AQLQ global score change from baseline at Week 12, LS Mean: 0.72 (0.28)
[2]; 400 mg TID, baseline percent predicted FEV1 <77%
  AQLQ global score change from baseline at Week 12, LS Mean: 0.55
[2]; 400 mg TID, baseline percent predicted FEV1 <80%
  AQLQ global score change from baseline at Week 12, Mean: 0.41
[2]; 400 mg TID, baseline weight <60 kg
  AQLQ global score change from baseline at Week 12, Mean: 0.78 (0.40)
[2]; [8]
  AQLQ global score change from baseline at Week 12, LS Mean: 0.32 (0.18)
  AQLQ global score change from baseline at Week 12, Mean: 0.26 (0.89)
[2]; 400 mg TID, former smokers
  AQLQ global score change from baseline at Week 12, LS Mean: −0.11
  AQLQ global score change from baseline at Week 12, Mean: −0.55
[2]; [9]
  AQLQ global score change from baseline at Week 12, LS Mean: 0.55 (0.19)
  AQLQ global score change from baseline at Week 12, Mean: 0.41 (0.64)
[2]; 400 mg TID, male
  AQLQ global score change from baseline at Week 12, LS Mean: 0.41 (0.18)
[2]; 400 mg TID, never smokers
  AQLQ global score change from baseline at Week 12, Mean: 0.55
[2]
  AQLQ and AQLQ(S) effect (in words): improvement in quality of life as measured by AQLQ
[2]; listed as Rilzabrutinib
  AQLQ and AQLQ(S) effect (in words): significant improvements in AQLQ and AQLQ(S)

— patent US20260345619A1 (Principia Biopharma Inc., priority 2023, published 2026)
